Results as given in patent US9023890B2, “Nitrate esters and their use for the treatment of muscle and muscle related diseases” (dated 2015).

System: Myf-5, myogenin, follistatin
Assay: Western blotting of muscle protein expression after a single oral dose
Conditions: 5-month old mice, oral 80 mg/kg body weight, back and quadriceps muscles, 24 hours, vs control

CCCC(C)(CO[N+](=O)[O-])CO[N+](=O)[O-]
increase: expression of Myf-5 | expression of follistatin | expression of myogenin
